Measured values taken from patent publication EP0474580B1, “Use of 1-[3-(dimethylamino)propyl]-1-phenylphthalenes for the treatment of cerebrovascular disorders” (priority 1990, dated 1992).
Marks after values point to notes of the source that are not given here.

Tested on: ischemia-induced death in bilateral carotid arterial ligation (BCAL)
Assay: Brain ischemia-induced death in mice (bilateral carotid arterial ligation)
Type: in vivo, ICR MICE
Protocol: Male ICR MICE (Charles River) weighing 30 - 40 g were used after they were fasted for 1 day.
[…] Surviving mice were observed over 4 h.

## CN(C)CCCC1(c2ccc(F)cc2)OCc2cc(C#N)ccc21 (stereo not shown) [Citalopram, citalopram]
30 mg/kg,p.o., 30 min prior to ligation, 2 h after BCAL
  Survival rate (%) 2 h after BCAL: 50* %
30 mg/kg,p.o., 30 min prior to ligation, 4 h after BCAL
  Survival rate (%) 4 h after BCAL: 43* %
30 mg/kg, 2 h after bilateral carotid arterial ligation, vs saline
  ischemia-induced death / survival rate 2 h after ligation: significantly prevented ischemia-induced death
30 mg/kg, 4 h after bilateral carotid arterial ligation, vs saline
  ischemia-induced death / survival rate 4 h after ligation: significantly prevented ischemia-induced death
